Bioassay records as filed in PubChem.
TrxR1 substrate: rat thioredoxin reductase 1 substrate activity; O89049; purified TrxR1 substrate turnover, NADPH consumption readout; Potency, µM (series often up to 114 µM), inactives show at the top dose activity change, negative = substrate turnover; hit rate 0.01% among 390,000; AID 588456; further: potency means the concentration at half of the fitted maximal effect; on the % scale 0 is the no-effect control and ±100 the full control effect; nearly all actives have a fitted effect of over 50% in size
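Rat TrxR1, dispensed at 90 nM, was prereduced with 400 uM NADPH (final) for 5 min at ~22 deg C, then incubated with compound 15 min before 400 uM selenite. A first-read NADPH fluorescence drop versus no-compound background flagged substrates.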
ClpP mod: qHTS Assay for Activators of ClpP. ATP-dependent Clp protease proteolytic subunit (Bacillus subtilis (strain 168)), P80244. purified B. subtilis ClpP, FRET peptide cleavage, 20 min. Potency, µM (top dose mostly 57.5 µM), for the others: at the highest dose activity change, negative = active. hit rate 1.9% among 340,000; active means well fitted falling curve with a large enough effect; inconclusive means small, poorly fitted or top-dose-only effect; inactive means no such curve, though single readings can be large or run the other way; further: potency means the concentration at half of the fitted maximal effect; the source files actives as falling curves though it sought activators and does not explain the sign; nearly all actives have a fitted effect of over 65% in size
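ClpP 10 microg/mL final, pH 8 Tris/KCl buffer with BSA, glycerol, Tween-20; compound pinned in; FRET-FV substrate; RT 20 min; Ex320/Em430; ΔFRET vs ADEP 5.8 microM, DMSO, no enzyme.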
miR-21 FLuc: miR-21 reporter, rising signal | HeLa miR-21 FLuc reporter, luciferase, 48 h | Potency, µM (highest dose often 38.3 µM), for inactives: at the top dose reporter change, positive = more light | 340,000 tested, under 10 active | AID 2288; active = well fitted rising curve with a large enough effect; inconclusive = small, poorly fitted or top-dose-only effect; inactive = no such curve, though single readings can be large or run the other way;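 further: % of control where 0% means no effect; miR-21 action dims this reporter so a rising signal means less miR-21 action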
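Using DMEM plus 10% FBS, HeLa miR-21-FLuc cells are incubated with test compounds (final up to about 40uM) for 48 hours; firefly luciferase signal is then imaged following reagent-mediated lysis.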
rTrxR1 inhibitor: inhibitors of rat thioredoxin reductase 1 | O89049 | recombinant rTrxR1, NADPH fluorescence consumption, selenite substrate | Potency, µM (top dose mostly 114 µM), without a hit: at the highest dose activity change, negative = inhibition, actives largely listed as inhibitors | hit rate 1% among 390,000 | AID 588453; further: potency means the concentration at half of the fitted maximal effect; on the % scale 0 is the no-effect control and ±100 the full control effect; nearly all actives have a fitted effect of over 65% in size
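Rat TrxR1 (90 nM in the dispensed reagent) was pre-reduced with 400 uM NADPH for 5 min at room temperature, then incubated with compound for 15 min. After 400 uM selenite was added, NADPH fluorescence (Ex 340/Em 450 nm) was followed for 8 min.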
Apoferritin bind: candidate novel general anesthetic via apoferritin binding; P02791; apoferritin/1-aminoanthracene competitive binding, fluorescence; Potency, µM (series often up to 77.5 µM), inactives show at the top dose activity change, negative = displacement, usual class: inhibitors; hit rate 0.074% among 350,000; further: potency means the concentration at half of the fitted maximal effect; on the % scale 0 is the no-effect control and ±100 the full control effect; nearly all actives have a fitted effect of over 20% in size
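Probe: 1-aminoanthracene (50% saturated, PBS). Protein: horse-spleen apoferritin, 10 uM. Incubation: 10 min, room temperature. Detection: 380 nm excitation, 535 nm emission. Analysis: normalized response, four-parameter Hill.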
Numbers without * were called inactive; u = inconclusive; x = no result; [ ] = remark or other dose. An excerpt weighted towards active compounds, which were near 2.5% of everything screened. Unless noted, the call rests on the fitted dose curve; in most records, active means well fitted curve in the direction sought with a large enough effect; inconclusive means small, poorly fitted or top-dose-only effect, or another doubt; inactive means no such curve, though single readings can be large; an effect the other way counts as inactive or inconclusive.

The chains behind the UniProt entries cited, without tags or fusion partners.
ATP-dependent Clp protease proteolytic subunit (Bacillus subtilis (strain 168)), P80244, UniProt P80244, whole entry, looked up: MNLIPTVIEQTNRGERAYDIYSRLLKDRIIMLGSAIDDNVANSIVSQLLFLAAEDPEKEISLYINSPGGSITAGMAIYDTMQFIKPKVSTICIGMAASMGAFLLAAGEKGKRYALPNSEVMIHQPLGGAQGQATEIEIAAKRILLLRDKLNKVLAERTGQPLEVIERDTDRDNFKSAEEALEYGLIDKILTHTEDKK

no.	smiles	ClpP mod	Apoferritin bind	TrxR1 substrate	rTrxR1 inhibitor	miR-21 FLuc
1	COc1cccc(NC(=O)c2cn(C3CCCCC3)c(=O)c3c2c2ccccc2n3C)c1	32µM*	199%	21%	16%	11%
2	CCCOC1CCCN(C(=O)CCc2nnc(-c3ccc4c(c3)OCO4)o2)C1 (stereo not drawn)	20µM*	-17%	8%	1%	-50%
3	O=C(c1ccc2c(c1)OCO2)C1CCCN(Cc2cccn2-c2cccnc2)C1 (stereo not drawn)	35µM*	-22%	6%[57.1 µM]	9%[57.1 µM]	9%
4	COc1cc(Nc2ccc(S(N)(=O)=O)cc2)c([N+](=O)[O-])nc1[N+](=O)[O-]	-1%	-14%	-11%	3.2µM*	3%
5	COc1ccc(-c2csc(Nc3ccc(S(N)(=O)=O)cc3)n2)cc1OC	-5%	-1%	6%	24%	24%
6	COc1ccccc1NC(=O)CN1CCN(CC(=O)Nc2ccccc2Cl)CC1	0%	3%	9%[57.1 µM]	9%[57.1 µM]	0%
7	COc1cccc(CN2CCN(CC(=O)Nc3ccccc3Cl)CC2)c1	14µM*	-16%	-5%[57.1 µM]	10%[57.1 µM]	-1%
8	c1ccc(OCc2nnc3n2N=C(c2ccccc2)CS3)cc1	0%	u	-2%	8%	-27%
9	COc1ccc(OCc2nnc3n2N=C(c2ccc(OC)cc2)CS3)cc1	2%	8.9µM*	5%[57.1 µM]	9%[57.1 µM]	7%
10	COc1ccc(OCc2nnc3n2N=C(c2ccc(C)cc2)CS3)cc1	0%	11µM*	2%[57.1 µM]	12%[57.1 µM]	-10%
11	Cc1c(C(=O)Nc2cccc(-c3nc4ccccc4s3)c2)oc2ccc(F)cc12	u	59%	13%	43%	-1%
12	Cc1nc(NC(=S)NC(=O)COc2ccccc2Cl)ccc1Br	28µM*	3%	-8%	-2%	-3%
13	CCOC(=O)c1nnn(CC(=O)N2N=C(c3cccc4ccccc34)CC2c2ccccc2)c1C(=O)OCC (stereo not drawn)	11µM*	-5%	148%	46%	-15%
14	CCC(=O)N1N=C(c2ccccc2)CC1c1ccccc1 (stereo not drawn)	0%	-5%	8%[57.1 µM]	17%[57.1 µM]	-15%
15	O=C(COc1ccccc1)NC1CCCCC1	-2%	0%	-2%	7%	-27%
16	O=C(COc1ccccc1)NC1CCCCCCC1	-3%	45µM*	-1%	5%	-42%
17	COc1cc(/C=C2\C(=O)ON=C2c2ccccc2)cc(Cl)c1O	x	-10%	4%[57.1 µM]	16µM*	2%
18	COc1ccc(/C=C2/C(=O)ON=C2C)cc1Cl	x	-4%	-1%	u	4%
19	COc1cc(C=C2C(=O)c3ccccc3C2=O)ccc1O	-2%	-10%	-2%	-23%	-7%
20	COc1cc(/C=C2/C(=O)ON=C2c2ccccc2)ccc1O	-1%	1%	-17%	13µM*	-18%
21	COc1cc(C=C2C(=O)OC(c3ccccc3)OC2=O)cc(Br)c1O (stereo not drawn)	x	-5%	-2%[57.1 µM]	u	-3%
22	COc1cc(/C=C2\C(=O)ON=C2c2ccccc2)cc(Br)c1O	x	-1%	-15%	11µM*	-5%
23	CCOc1cc(/C=C2\C(=O)ON=C2c2ccccc2)cc(Br)c1O	x	-4%	-3%	14µM*	-2%
24	Cc1nn(-c2ccccc2)c(-n2cccc2)c1C(=O)N1CCN(c2ccccc2)CC1	0%	-18%	3%	-2%	15%
25	Cc1nn2c(c1-c1ccccc1)NC1=C(C(=O)CCC1)C2c1ccccc1 (stereo not drawn)	8.9µM*	131%	185%	-6%	0%

Just rTrxR1 inhibitor, for some of the entries so far:
cpd | Structure | rTrxR1 inhibitor
6 | COc1ccccc1NC(=O)CN1CCN(CC(=O)Nc2ccccc2Cl)CC1 | 9%[57.1 µM]
7 | COc1cccc(CN2CCN(CC(=O)Nc3ccccc3Cl)CC2)c1 | 10%[57.1 µM]
8 | c1ccc(OCc2nnc3n2N=C(c2ccccc2)CS3)cc1 | 8%
9 | COc1ccc(OCc2nnc3n2N=C(c2ccc(OC)cc2)CS3)cc1 | 9%[57.1 µM]

Laid out differently: results already given
3: O=C(c1ccc2c(c1)OCO2)C1CCCN(Cc2cccn2-c2cccnc2)C1 (stereo not drawn)
8: c1ccc(OCc2nnc3n2N=C(c2ccccc2)CS3)cc1

Compound,3,8
ClpP mod,35µM*,0%
Apoferritin bind,-22%,u
TrxR1 substrate,6%[57.1 µM],-2%
rTrxR1 inhibitor,9%[57.1 µM],8%
miR-21 FLuc,9%,-27%

The results go on:
no.	smiles	ClpP mod	Apoferritin bind	TrxR1 substrate	rTrxR1 inhibitor	miR-21 FLuc
26	COC(=O)C1=C[C@@H](C(=O)OC)C2C3=C(C(=O)[C@@]2(C)NC(=O)c2ccccc2)[C@H](C)[C@@H]2C(=O)NC(=O)[C@@H]2[C@@H]3C1 (stereo partly drawn)	x	-2%	-4%[57.1 µM]	-2%	x
27	O=c1c2cc(N3CCOCC3)ccc2[nH]c(=S)n1Cc1ccco1	0%	-2%	4%[57.1 µM]	10µM*	-19%
28	CC(=O)c1cc(-c2ccccc2)n(CC(=O)N2CCN(C3CCCC3)CC2)c1C	32µM*	5%	-3%	21%[57.1 µM]	-4%
29	CCC(=O)NC(=S)Nc1ccccc1F	13µM*	-14%	10%[57.1 µM]	15%[57.1 µM]	-7%
30	Cc1cccc(NC(=S)NC(=O)CCc2ccccc2)c1C	-1%	7%	0%	u	-10%
31	O=C(CC(=O)Nc1ccccc1F)Nc1ccccc1F	x	-5%	2%	89µM*	-11%
32	Cc1cccc(NC(=S)NC(=O)Cc2ccccc2)c1C	x	-8%	-14%	56µM*	-13%
33	O=C(COc1ccc(Br)cc1CO)Nc1ccccc1F	10µM*	-12%	10%[57.1 µM]	12%[57.1 µM]	-52%
34	O=C(CN1CCCCCC1)Nc1ccccc1F	u	9%	8%[57.1 µM]	5%[57.1 µM]	-10%
35	CCOc1ccccc1NC(=O)CSc1nc2c(oc3ccccc32)c(=O)n1-c1ccc(F)cc1	-8%	-9%	0%	12%	-11%
36	CCOC(=O)C(=CNc1ccc(N2CCCCC2)c(S(=O)(=O)Nc2ccccc2OC)c1)C(=O)OCC	18µM*	x	14%	-14%	x
37	CCOC(=O)N1CCN(c2nc3ccccc3nc2C(C#N)S(=O)(=O)c2ccc(C)cc2)CC1 (stereo not drawn)	32µM*	-7%	-6%	-6%	-10%
38	CCOC(=O)c1c(C)[nH]c(C)c1S(=O)(=O)N(C)CC(=O)N1CCN(c2cccc(Cl)c2)CC1	-2%	0%	6%[57.1 µM]	31%[57.1 µM]	12%
39	COc1cccc2c1NC(C(=O)O)C1CC=CC21 (stereo not drawn)	-6%	-17%	8%	13µM*	4%
40	O=C(O)C1Nc2c(cccc2C(F)(F)F)C2C=CCC12 (stereo not drawn)	x	-14%	x	x	-6%
41	CC1CCN(S(=O)(=O)c2ccc3c(c2)N(CC(=O)N(C)Cc2ccccc2)C(=O)CO3)CC1	1%	-19%	-4%	14%	0%
42	Cc1nc(-c2ccccc2)c(-c2ccncc2)o1	x	-10%	x	x	x
43	O=C(CCCOc1ccccc1)Nc1nc2ccccc2[nH]1	x	-3%	-1%	18%[57.1 µM]	-36%
44	O=S(=O)(CCOc1ccccc1)c1nc2ccccc2[nH]1	-2%	-5%	0%	45µM*	16%
45	Cc1ccc(C(=O)OCCN2CCN(c3ncc(C(F)(F)F)cc3Cl)CC2)cc1	14µM*	-19%	-12%	-6%	-4%
46	COc1ccc(OC)c(NC(=O)CN2CCCN(Cc3ccccc3Cl)S2(=O)=O)c1	1%	-2%	5%	18%	-7%
47	Cc1cccc(C)c1Nc1c(-c2cccs2)nc2ncccn12	0%	7%	2%	3%	5%
48	Cc1ccc2nc(-c3cccs3)c(Nc3c(C)cccc3C)n2c1	28µM*	35%	53%	13%	-1%
49	CCC(Sc1nnc2c(n1)[nH]c1ccccc12)C(=O)Nc1nnc(C(C)C)s1 (stereo not drawn)	-2%	-17%	2%	20%	-10%
